Measured values reported in PMC3761409 (Journal of molecular recognition : JMR, 2013).

The chains behind the UniProt entries cited, without tags or fusion partners. Residues count along the entry.
UniProt P10415, 1-205: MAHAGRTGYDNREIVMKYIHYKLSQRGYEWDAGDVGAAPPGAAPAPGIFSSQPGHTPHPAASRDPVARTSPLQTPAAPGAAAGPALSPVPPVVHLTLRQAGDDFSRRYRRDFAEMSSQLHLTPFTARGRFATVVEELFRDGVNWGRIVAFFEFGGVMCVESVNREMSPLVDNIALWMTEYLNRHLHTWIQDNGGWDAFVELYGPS

Biological target: Human Bcl2 (residues 1-205) (Homo sapiens, UniProt P10415)
Test: Isothermal titration calorimetry
Conditions: ITC, one-site binding model, Sodium phosphate buffer containing 100mM NaCl, 25°C, pH 7, ± one SD of at least three independent measurements

Question: For `CSCC[C@H](NC(=O)[C@H](CCCNC(=N)N)NC(=O)[C@H](CCCNC(=N)N)NC(=O)[C@H](CC(C)C)NC(=O)[C@H](CCC(=O)O)NC(=O)[C@H](C)NC(=O)CNC(=O)[C@H](Cc1ccc(O)cc1)NC(=O)[C@H](CCCNC(=N)N)NC(=O)[C@H](CCC(N)=O)NC(=O)[C@H](C)NC(=O)[C@H](C)NC(=O)[C@@H](N)Cc1c[nH]c2ccccc12)C(=O)N[C@@H](C)C(=O)N[C@@H](CC(=O)O)C(=O)N[C@@H](CCC(=O)O)C(=O)N[C@@H](Cc1ccccc1)C(=O)N[C@H](C(=O)N[C@@H](CC(=O)O)C(=O)N[C@@H](CO)C(=O)O)C(C)C` [Bad_S+4A], which ΔH is on record?
Answer: -6.16 ± 0.16 kcal/mol

Question: Which ΔH does the source give for `CSCC[C@H](NC(=O)[C@H](CCCNC(=N)N)NC(=O)[C@H](CCCNC(=N)N)NC(=O)[C@H](CC(C)C)NC(=O)[C@H](CCC(=O)O)NC(=O)[C@H](C)NC(=O)CNC(=O)[C@H](Cc1ccc(O)cc1)NC(=O)[C@H](CCCNC(=N)N)NC(=O)[C@H](CCC(N)=O)NC(=O)[C@H](C)NC(=O)[C@H](C)NC(=O)[C@@H](N)Cc1c[nH]c2ccccc12)C(=O)NCC(=O)N[C@@H](CC(=O)O)C(=O)N[C@@H](CCC(=O)O)C(=O)N[C@@H](Cc1ccccc1)C(=O)N[C@H](C(=O)N[C@@H](CC(=O)O)C(=O)N[C@@H](CO)C(=O)O)C(C)C` [Bad_S+4G] here?
Answer: -5.75 ± 0.05 kcal/mol
